From patent US20240229101A1, “METHOD FOR DETECTING INTRACELLULAR ACTIVITY OF CYP ENZYMES” (NATIONAL INSTITUTE OF ADVANCED INDUSTRIAL SCIENCE AND …, priority 2021, published 2024)

Tested on: CYP enzyme group
Experiment: Raman observation of HepaRG hepatocytes, signal of oxidized CYP enzyme group (1370, 1636 cm^-1)
Format: cell-based, human

SMILES: CO[C@H]1/C=C/O[C@@]2(C)Oc3c(C)c(O)c4c(O)c(c(/C=N/N5CCN(C)CC5)c(O)c4c3C2=O)NC(=O)/C(C)=C\C=C\[C@H](C)[C@H](O)[C@@H](C)[C@@H](O)[C@@H](C)[C@H](OC(C)=O)[C@@H]1C [Rifampicin]
- Raman signal intensity at a wavenumber of 1636 cm^-1 with increasing concentration (HepaRG hepatocytes, 0, 0.04, 0.4, 4 μM, 48 hr (FIG. 14)): increased
- Raman signals at wavenumbers of 1370 and 1636 cm^-1 (HepaRG hepatocytes, 4 μM, 48 hr, compared with non-induced cell group (FIG. 6)): increased
- median value of per-cell Raman signal at 1636 cm^-1 with dosage concentration (HepaRG, 0, 0.04, 0.4, 4 μM, statistically significant (FIG. 15)): increased
- Raman signal at a wavenumber of 1636 cm^-1 derived from the CYP enzyme group (HepaRG, 4 μM from Day 6, measured on Day 8 (FIG. 25)): increases
